This note sets out measurements from paper PMC4858680, “A platinum-based hybrid drug design approach to circumvent acquired resistance to molecular targeted tyrosine kinase inhibitors” (Scientific Reports, 2016).

Sequences of proteins named here, by UniProt entry; tags and fusion partners are left off. Residues count along the entry.
UniProt P23458, 561-860 limits assumed: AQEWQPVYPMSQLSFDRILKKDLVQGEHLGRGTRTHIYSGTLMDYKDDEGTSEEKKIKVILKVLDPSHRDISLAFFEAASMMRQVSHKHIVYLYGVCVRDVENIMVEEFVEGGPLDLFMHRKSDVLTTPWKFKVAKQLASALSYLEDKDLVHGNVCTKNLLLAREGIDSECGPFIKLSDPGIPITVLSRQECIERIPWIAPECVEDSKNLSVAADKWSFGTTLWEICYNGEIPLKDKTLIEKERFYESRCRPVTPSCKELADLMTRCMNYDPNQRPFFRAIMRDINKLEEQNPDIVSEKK
UniProt P23458, 854-1154 limits assumed: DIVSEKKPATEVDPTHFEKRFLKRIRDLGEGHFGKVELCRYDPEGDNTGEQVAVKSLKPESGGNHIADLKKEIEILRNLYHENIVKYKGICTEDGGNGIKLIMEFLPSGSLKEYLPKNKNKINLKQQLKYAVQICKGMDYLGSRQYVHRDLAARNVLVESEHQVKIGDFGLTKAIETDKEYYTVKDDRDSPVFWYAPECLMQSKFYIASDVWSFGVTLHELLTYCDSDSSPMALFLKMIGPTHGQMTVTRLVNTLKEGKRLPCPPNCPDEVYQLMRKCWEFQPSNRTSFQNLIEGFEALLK

For test [1], the target named is T1, JAK1(JH2domain-pseudokinase) (Homo sapiens, UniProt P23458). Particulars: 10 μM.
Test [2] has as its target T2, JAK1(JH1domain-catalytic) (Homo sapiens, UniProt P23458). Particulars: 10 μM.
The target in test [3] is T2, JAK1(JH1domain-catalytic). The test can be described thus: biochemical. Conditions: read-out: Percent control.
Test [4] deals with T1, JAK1(JH2domain-pseudokinase). Briefly: biochemical. Particulars: read-out: Percent control.
In test [5] the target is FLT3(D835H) (Homo sapiens, UniProt P36888, D835H). Briefly: biochemical. Conditions: read-out: Percent control.
The target of test [6] is T3, EGFR(L747-S752del,P753S) (Homo sapiens, UniProt P00533, DEL747-752/P753S). Briefly: biochemical. Conditions: read-out: Percent control.
Test [7] has as its target T4, EGFR(S752-I759del) (Homo sapiens, UniProt P00533, DEL752-759). Briefly: biochemical. Conditions: read-out: Percent control.
For test [8], the target named is T5, EGFR(L747-E749del,A750P) (Homo sapiens, UniProt P00533, A750P/DEL747-749). Briefly: biochemical. Conditions: read-out: Percent control.
Test [9] concerns the target T6, EGFR(E746-A750del) (Homo sapiens, UniProt P00533, DEL746-750). The test can be described thus: biochemical. Conditions: read-out: Percent control.
Test [10] addresses T3, EGFR(L747-S752del,P753S). Particulars: 10 μM.
For test [11], the target named is T4, EGFR(S752-I759del). Conditions: 10 μM.
Test [12] concerns the target T6, EGFR(E746-A750del). Conditions: 10 μM.
Test [13] deals with T5, EGFR(L747-E749del,A750P). Conditions: 10 μM.

In the case of `COc1cc2c(Nc3ccc(Br)cc3F)[n+]([Pt-2]3([Cl])[NH2+]C4CCCCC4[NH2+]3)cnc2cc1OCC1CCN(C)CC1` (stereo not drawn) [3b, oxaliplatin-vandetanib], the Percent control in test [1] is 85%; in [2], 83%.

As for `C#Cc1cccc(Nc2ncnc3cc(OCCOC)c(OCCOC)cc23)c1` [Erlotinib], the results for the remaining activity at 10 µM in test [3], in test [4] and in [5] were 100%, 100% and 3.4%, respectively.

For the compound `Cc1ccc(NC(=O)c2ccc(CN3CCN(C)CC3)cc2)cc1Nc1nccc(-c2cccnc2)n1` [Imatinib, reference compound], the remaining activity at 10 µM in [3] worked out at 100%; in test [6], 100%; in test [7] it was 100%; in test [8], 43.2%; in [9], 100%; in test [4] it was 100%.

For `C#Cc1cccc(Nc2c3cc(OCCOC)c(OCCOC)cc3nc[n+]2[Pt@SP2-2]([NH3+])([NH3+])[Cl])c1` [2a, cisplatin-erlotinib], the Percent control is 100% in [1] and 93% in [2].

In the case of `COc1cc2c(Nc3ccc(Br)cc3F)ncnc2cc1OCC1CCN(C)CC1` [Vandetanib, reference compound], the remaining activity at 10 µM in test [3] and in test [4] was 100% each time.

For `Cc1ccc(NC(=O)c2ccc(CN3CCN(C)CC3)cc2)cc1Nc1nccc(-c2cccnc2)[n+]1[Pt-2]1([Cl])[NH2+]C2CCCCC2[NH2+]1` (stereo not drawn) [1b, oxaliplatin-imatinib], the Percent control came to 100% in test [1]; 81% in test [10]; 46% in test [11]; 75% in [12]; 80% in test [2]; 67% in test [13].
